# Data published in PubChem BioAssay AID504490 (NMMLSC, 2011).
# The entries are a selection whose mix differs from that of the whole data set. Some salts and complexes are drawn in separate pieces, as the source files them; their charges need not balance. Active and inactive are the calls of the source.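 How the source made its calls: active means inhibition above a set limit, near 3 SD of compounds lacking own fluorescence (cut at about 54% in these data); inactive means the rest.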
# System: beta-arrestin 1 C-terminal peptide binding to AP2 beta2-adaptin appendage (human)
# Test: blockers of arrestin peptide association with AP2 adaptin – biochemical, GPCR trafficking, flow cytometry, primary screen (AID 504490);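 further: plate controls were DMSO wells for no effect and 5 µM unlabelled arrestin peptide for full effect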
# Details: FITC-arrestin peptide / GST-AP2 beads, at 10 µM, stronger effect = higher value, AP2 beta2 appendage carries R879A mutation
row,SMILES,inhibition
1,CCN(CC)CCCOC(=O)C(O)(c1ccccc1)c1ccccc1,inactive: 49.4%
2,O=[N+]([O-])c1cc([N+](=O)[O-])c(Nc2cccnc2)c([N+](=O)[O-])c1,inactive: 5.38%
3,O=[N+]([O-])c1ccc2c(c1)C=Nc1ccccc1O2,inactive: -0.52%
4,Cc1cccc(C)c1OP(C)(N)=O (stereo not given),inactive: 35.2%
5,CC(C)(C)c1ccc(OP(C)(=O)Nc2ccc(SC(F)(F)F)cc2)cc1 (stereo not given),inactive: -1.38%
6,Cc1ccc(NP(C)(=O)Oc2ccccc2)c(C)c1 (stereo not given),inactive: 9.55%
7,COc1ccccc1OP(C)(=O)Nc1ccc(C)cc1 (stereo not given),inactive: 0.9%
8,CCOC(=O)c1ccc(NP(C)(=O)Oc2ccccc2)cc1 (stereo not given),inactive: -8.2%
9,Cc1cc(C)cc(OP(C)(N)=O)c1 (stereo not given),inactive: -15.1%
10,COc1ccc(OP(C)(=O)Nc2cccc(F)c2)cc1 (stereo not given),inactive: 5.81%
11,COc1ccccc1OP(C)(=O)Nc1cc(Cl)ccc1C (stereo not given),inactive: -5.62%
12,CP(=S)(Nn1cnnc1)Oc1ccccc1 (stereo not given),inactive: 5.71%
13,CP(=O)(Nc1ccccc1Br)Oc1ccccc1 (stereo not given),inactive: 3.83%
14,COc1ccccc1OP(C)(=O)Nc1ccccc1 (stereo not given),inactive: 19.3%
15,CP(=O)(Oc1ccccc1)OC(c1ccccc1)C(F)(F)F (stereo not given),inactive: 14.8%
16,Cc1cccc(C)c1OP(C)(=O)Nc1ccc(SC(F)(F)F)cc1 (stereo not given),inactive: -3.26%
17,CP(=O)(Nc1ccc(SC(F)(F)F)cc1)Oc1ccc(Cl)cc1 (stereo not given),inactive: 11.5%
18,Cc1cc(C)cc(OP(C)(=O)Nc2ccc(SC(F)(F)F)cc2)c1 (stereo not given),inactive: 16.4%
19,CCc1ccc(OP(C)(=O)N2CCN(c3ccc([N+](=O)[O-])cc3)CC2)cc1 (stereo not given),inactive: -9.92%
20,CP(=O)(NC(=O)Nc1ccccc1)Oc1ccccc1 (stereo not given),inactive: 6.61%
21,CCOC(=O)c1ccc(NP(C)(=O)Oc2ccc(OC)cc2)cc1 (stereo not given),inactive: -5.92%
22,O=[N+]([O-])c1cc([N+](=O)[O-])c(O)c([N+](=O)[O-])c1.c1ccc(Oc2ccncc2)cc1,inactive: -15.5%
23,CCOP(C)(=S)SCC(=O)NC(C)C(=O)O (stereo not given),inactive: -1.44%
24,CP(=O)(Nc1ccccn1)Oc1ccc(Cl)cc1 (stereo not given),inactive: 24%
25,O=[N+]([O-])c1cc([N+](=O)[O-])c(-n2nnc3ccccc32)c([N+](=O)[O-])c1,inactive: 19.7%
26,O=[N+]([O-])c1cc([N+](=O)[O-])c(-c2cnn(-c3ccccc3)c2)c([N+](=O)[O-])c1,inactive: -8.76%
27,Cc1nc2ccc3ccccc3c2s1.O=[N+]([O-])c1cc([N+](=O)[O-])c(O)c([N+](=O)[O-])c1,inactive: -2.6%
28,CCOC(=O)C(CC)C1=NC(C)(C)Cc2ccccc21.O=[N+]([O-])c1cc([N+](=O)[O-])c(O)c([N+](=O)[O-])c1 (stereo not given),inactive: -8.09%

row,SMILES,inhibition
1,O=[N+]([O-])c1cc([N+](=O)[O-])c(Nc2nnnn2CCO)c([N+](=O)[O-])c1,inactive: -4.92%
2,CC1=C2N=C(C=C3N=C(C(C)=C4[N-][C@@](C)([C@@H]5N=C1[C@](C)(CCC(=O)NC[C@@H](C)OP(=O)([O-])O[C@H]1[C@@H](O)[C@@H](n6cnc7cc(C)c(C)cc76)O[C@@H]1CO)[C@H]5CC(N)=O)[C@@](C)(CC(N)=O)[C@@H]4CCC(N)=O)[C@@](C)(CC(N)=O)[C@@H]3CCC(N)=O)C(C)(C)[C@@H]2CCC(N)=O.[C-]#N.[Co+3],inactive: -4.16%
3,COc1ccccc1OP(C)(=O)Nc1c(C)cccc1C (stereo not given),inactive: 12.7%
4,CN1CCCCC1COC(=O)C1(O)c2ccccc2CCc2ccccc21 (stereo not given),inactive: 0.75%
5,CP(=O)(Nc1ccc(SC(F)(F)F)cc1)Oc1ccccc1 (stereo not given),inactive: 10.6%
6,CCCOc1ccc(NP(C)(=O)Oc2ccc(Cl)cc2)cc1 (stereo not given),inactive: 5.41%
7,O=C(O)c1cccc(Nc2c([N+](=O)[O-])cc([N+](=O)[O-])cc2[N+](=O)[O-])c1,inactive: 5.19%
8,CC1=NCCc2c1[nH]c1ccccc21.O=[N+]([O-])c1cc([N+](=O)[O-])c(O)c([N+](=O)[O-])c1,inactive: -6.66%
9,COc1ccccc1OP(C)(=O)Nc1cccc(Br)c1 (stereo not given),inactive: -198%
10,Cc1cc(C)cc(OP(C)(=O)Nc2ccc(C)cc2C)c1 (stereo not given),inactive: -2.6%
11,Cc1ccc(C)c(NP(C)(=O)Oc2ccccc2)c1 (stereo not given),inactive: 5%
12,CP(=O)(Nc1cccc(Br)c1)Oc1ccccc1 (stereo not given),inactive: 6.72%
13,Cc1cc(C)cc(OP(C)(=O)Nc2ccccn2)c1 (stereo not given),inactive: 30.1%
14,CP(=O)(Nc1ccccc1F)Oc1ccccc1 (stereo not given),inactive: -5.31%
15,CC(C)c1ccc(OP(C)(=O)Nc2ccc(SC(F)(F)F)cc2)cc1 (stereo not given),inactive: 7.94%
16,O=C(OC1CN2CCC1CC2)c1ccc([N+](=O)[O-])cc1 (stereo not given),inactive: -8.02%
17,O=C(OCCN1CCN(CCOCc2ccccc2)CC1)C(O)(c1ccccc1)c1ccccc1,inactive: 28.6%
18,COc1ccc2c(c1O)-c1c(O)c(OC)cc3c1[C@H](C2)[N+](C)(C)CC3.O=[N+]([O-])c1cc([N+](=O)[O-])c([O-])c([N+](=O)[O-])c1[O-],inactive: 15.4%
19,CCOC(=O)c1ccc(NP(C)(=O)Oc2ccc(F)cc2)cc1 (stereo not given),inactive: 1.03%
20,COc1ccc(OP(C)(=O)Nc2ccc(SC(F)(F)F)cc2)cc1 (stereo not given),inactive: -1.12%
21,Cc1c([N+](=O)[O-])cc([N+](=O)[O-])c(Br)c1[N+](=O)[O-],inactive: 8.27%
22,CCN(CC)CCCOC(=O)C(O)(c1ccccc1)C1CCCCC1 (stereo not given),inactive: -1.73%
23,CP(=O)(Nc1ccccc1)Oc1ccc(F)cc1 (stereo not given),inactive: 7.82%
24,CCCCCOc1ccc(NP(C)(=O)Oc2ccc(Cl)cc2Cl)cc1 (stereo not given),inactive: -11.8%
25,O=[N+]([O-])c1cc([N+](=O)[O-])c(OC2CCCCC2O)c([N+](=O)[O-])c1 (stereo not given),inactive: 8.22%
26,COc1ccc(OP(C)(=O)Nc2cccc(Br)c2)cc1 (stereo not given),inactive: 19.9%
27,CN(C)CCOC(=O)C(O)(c1ccccc1)C1CCCCC1 (stereo not given),inactive: 23.1%
